Tests used:
[1] = Assay 1: radiolytic reduction of prodrug in formate buffer (or other solution), products analysed by HPLC; settings: prodrug 50 μM in sodium formate pH 7.0, anoxic, cobalt-60
[2] = system: UV4 cells; assay: Cytotoxicity against UV4 cells, 4 hr aerobic exposure; type: cell-based; settings: read-out: IC50, P (unirradiated prodrug); UV4, 4 hr aerobic exposure; mean ± SEM
[3] = system: SKOV3 cells; assay: Cytotoxicity against SKOV3 cells, 4 hr aerobic exposure; type: cell-based, human; settings: read-out: IC50, P (unirradiated prodrug); SKOV3, 4 hr aerobic exposure; mean ± SEM

Compound	G(+E), anoxic, Assay 1 (yield of effector) [1] [μM/Gy]	IC50 [2] [µM]	IC50 [3] [µM]
bis(3-methyl-2,4-pentanedionato)(N-[3-[(2-aminoethyl)-amino]propyl]acridine-4-carboxamide)cobalt(III) perchlorate	0.8	31	74
C[N+](C)(CCNC(=O)c1cccc2cc3ccccc3nc12)Cc1ccc([N+](=O)[O-])cc1 [Compound 15, 2-[N-(acridin-4-yl)carbonyl]aminoethyl-(dimethyl)-4-nitrobenzylammonium bromide]	0.072		
Cc1cccc2c(N)c3cccc(C(=O)NCC[N+](C)(C)Cc4ccc([N+](=O)[O-])cc4)c3nc12 [Compound 17, 2-[N-(9-amino-5-methylacridin-4-yl)carbonyl]aminoethyl-(dimethyl)-4-nitrobenzylammonium bromide]	0.034		
C[N+](C)(CCNC(=O)c1cccc2cc3ccccc3nc12)Cc1ccc([N+](=O)[O-])s1 [Compound 16, 2-[N-(acridin-4-yl)carbonyl]aminoethyl-(dimethyl)-(5-nitro-2-thienyl)methylammonium chloride]	0.19		
